# Assay results: ChEMBL document CHEMBL3853340, “Dihydropyrimidinones and -thiones with improved activity against human polyomavirus family members” (Bioorg Med Chem Lett, 2016)
# The chains behind the UniProt entries cited, without tags or fusion partners.
# UniProt P03070, whole entry: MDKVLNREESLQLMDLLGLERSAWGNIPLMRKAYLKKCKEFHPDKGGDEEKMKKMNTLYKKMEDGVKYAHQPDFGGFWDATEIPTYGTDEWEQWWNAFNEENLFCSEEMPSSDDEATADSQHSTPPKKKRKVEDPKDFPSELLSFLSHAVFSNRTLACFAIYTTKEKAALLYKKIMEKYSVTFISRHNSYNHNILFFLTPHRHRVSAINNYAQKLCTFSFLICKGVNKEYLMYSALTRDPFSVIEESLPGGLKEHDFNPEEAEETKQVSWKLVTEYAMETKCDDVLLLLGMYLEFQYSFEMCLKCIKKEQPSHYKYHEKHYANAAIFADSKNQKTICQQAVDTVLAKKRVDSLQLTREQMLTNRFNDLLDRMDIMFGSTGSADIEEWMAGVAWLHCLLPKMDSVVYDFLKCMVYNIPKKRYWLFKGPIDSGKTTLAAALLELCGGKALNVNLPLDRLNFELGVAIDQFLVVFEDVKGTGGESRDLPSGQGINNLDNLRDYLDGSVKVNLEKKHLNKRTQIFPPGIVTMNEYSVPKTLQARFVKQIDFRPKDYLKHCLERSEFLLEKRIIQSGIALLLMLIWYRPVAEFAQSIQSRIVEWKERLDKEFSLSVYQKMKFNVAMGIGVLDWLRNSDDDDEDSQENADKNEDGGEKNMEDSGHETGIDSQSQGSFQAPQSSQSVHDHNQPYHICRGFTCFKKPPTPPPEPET
# Assays:
# [1] = target: Large T antigen (Simian virus 40) (UniProt P03070); assay: Inhibition of ATPase activity of SV40 T antigen expressed in baculovirus at 10 uM by antibody affinity chromatography relative to control; conditions: Betapolyomavirus macacae
# Method in brief: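 Purified T antigen ATPase activity measured with test agent at a final concentration of 10 μM. Activity was normalized to reactions with no compound but an equal amount of DMSO. Values are the means of three independent experiments.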
# Homo sapiens [2] = species: Homo sapiens; assay: Inhibition of human Hsp70 expressed in Escherichia coli BL21(DE3) assessed as suppression of ATPase activity at 100 uM after 60 mins by TLC based steady state ATPase assay relative to control
# Method in brief: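 Hsp70 ATPase activity measured without cochaperone. Activity was normalized to reactions with no compound but an equal amount of DMSO. Values are the means of three independent experiments.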
# Homo sapiens [3] = assay: Inhibition of human Hsp70 expressed in Escherichia coli BL21(DE3) assessed as suppression of Hdj2-activated ATPase activity at 100 uM dosed 15 mins after Hsp70 and Hdj2 pre-incubation and measured after 60 mins by TLC based steady state ATPase assay relative to control
# Method in brief: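 Hsp70 ATPase activity measured with Hdj2 (Hsp40) at a 1:0.5 Hsp70:Hsp40 molar ratio. Activity was normalized to DMSO-matched reactions lacking compound. Values are the means of three independent experiments.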
smiles,measurement,setting,value
CC1=C(C(=O)OCc2ccccc2)C(c2ccc(-c3ccccc3C)cc2)NC(=O)N1Cc1ccc(-c2nnn[nH]2)cc1 (stereo not drawn),fold change (FC),[1],4.3
same,fold change (FC),Homo sapiens [2],1.2
same,fold change (FC),Homo sapiens [3],4.3
